Assay results taken from patent publication US20260384488A1, “MELANOCORTIN AND GLP-1 RECEPTOR AGONISTS AND METHODS OF USE” (published 2026).

Chains of the proteins cited; added tags and fusions are not shown. Residues count along the entry.
UniProt P43220, 24-463 limits assumed: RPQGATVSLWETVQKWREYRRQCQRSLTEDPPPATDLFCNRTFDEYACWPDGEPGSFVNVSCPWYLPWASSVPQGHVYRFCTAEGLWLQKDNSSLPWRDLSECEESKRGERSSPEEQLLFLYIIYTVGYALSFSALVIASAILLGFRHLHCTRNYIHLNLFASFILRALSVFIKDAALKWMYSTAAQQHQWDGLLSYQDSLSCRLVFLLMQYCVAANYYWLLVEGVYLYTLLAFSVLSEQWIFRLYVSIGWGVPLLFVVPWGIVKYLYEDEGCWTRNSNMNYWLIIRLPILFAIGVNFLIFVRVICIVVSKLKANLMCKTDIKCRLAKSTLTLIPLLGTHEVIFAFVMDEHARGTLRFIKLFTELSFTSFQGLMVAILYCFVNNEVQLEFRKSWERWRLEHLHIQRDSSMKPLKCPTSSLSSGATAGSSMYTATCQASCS

How the values were obtained:
human GLP-1R [1] = target: T1, human GLP-1R (Homo sapiens, UniProt P43220); assay: Competitive binding assay at hGLP-1R (SPR); conditions: 0.1 nM-150 nM
human GLP-1R [2] = target: T1, human GLP-1R; assay: In vitro receptor agonism at hGLP-1R (cAMP FRET, H188 HEK293 cells); conditions: 20 min incubation
[3] = Dose escalation experiment, food intake in diet-induced obese Sprague Dawley rats; conditions: subcutaneous, 60% HF diet
[4] = 11-day treatment experiment at stable daily dosing (10 nmol/kg/day) in diet-induced obese Sprague Dawley rats; conditions: 10 nmol/kg/day for eleven days, subcutaneous, 60% HF diet
[5] = 16-day treatment experiment with increasing doses in diet-induced obese Wistar rats; conditions: 5 nmol/kg/day 4 days, 10 nmol/kg/day 4 days, 25 nmol/kg/day 8 days, subcutaneous, 60% HF diet

Kd (human GLP-1R [1]): 9.9 nM | EC50 (% change in FRET ratio tracking levels of cAMP) (human GLP-1R [2]): 4.08 nM
Substance: HsQGTFTSDLSKYLEEEAVREFIAWLKNGGPSYSMEHFRWGKPV-NH2
reduction in food intake ([3]; 2 nmol/kg/day for 3 days): 54.7% | reduction in food intake ([3]; 5 nmol/kg/day for 3 days): 64.8% | reduction in food intake ([3]; 10 nmol/kg/day for 3 days): 62.9% | average reduction in food intake [4]: 40.9% | reduction in body weight [4]: 5.4% | reduction in body weight relative to pre-treatment [5]: 4.7% | reduction in calorie intake [5]: > 30%
